Values quoted from earlier work in patent US20120134977A1 (YEDA RESEARCH AND DEVELOPMENT CO. LTD., priority 2009, published 2012).

Key:
[1] = background statement; cited from earlier work
CD1-mice = settings: 0.68 nmol/mouse subcutaneous; Shechter et al. (2003); cited from earlier work

insulin
half-life in plasma [1]: 5 to 6 min | effect of subcutaneous administration at this dose in mice (CD1-mice): severely hypoglycemic
